Experimental data as given in US20060194835A1, “Compositions and methods for treating or preventing flaviviridae infections” (priority 2005, published 2006).

Test system: BVDV strain NADL
Experiment: Inhibition of viral release from BVDV-infected MDBK cells (plaque titer)
Settings: MOI = 1

NC(=O)c1ncn([C@@H]2O[C@H](CO)[C@@H](O)[C@H]2O)n1 [Ribavirin, ribavirin, reference compound] was tested, and the “TI (Therapeutic Index, CC50/EC50)” value was “˜166”.
